Experimental data taken from ChEMBL document CHEMBL4699588, “Structure-Activity Relationships of Noncovalent Immunoproteasome β5i-Selective Dipeptides” (J Med Chem, 2020).

Species on record: Homo sapiens
Experiment: Selectivity index, ratio of IC50 for inhibition of human constitutive 20S proteasome beta 5 chymotrypsin-like activity to IC50 for inhibition of human 20S immunoproteasome beta 5 chymotrypsin-like activity

| Ratio IC50 | SMILES |
| --- | --- |
| 118 | C[C@H](NC(=O)[C@H](CC(=O)NC(C)(C)C)NC(=O)C(=O)c1c[nH]c2ccccc12)C(=O)NCc1cccc2ccccc12 |
| 76 | Cc1cc(C(=O)N[C@@H](CC(=O)NOC(C)(C)C)C(=O)N[C@@H](C)C(=O)NCc2cccc3ccccc23)no1 |
| 80 | C[C@H](NC(=O)[C@H](CCC(=O)NC(C)(C)C)NC(=O)CCc1ccccc1)C(=O)NCc1cccc2ccccc12 |
| 1210 | Cc1ccc(S(=O)(=O)N[C@@H](CCC(=O)NC(C)(C)C)C(=O)N[C@@H](C)C(=O)NCc2cccc3ccccc23)cc1 |

Further lines, the molecule ahead of its results:

| SMILES | Ratio IC50 |
| --- | --- |
| Cc1ccc(S(=O)(=O)N[C@@H](CCC(=O)NC(C)(C)C)C(=O)N[C@@H](C)C(=O)NCc2ccc(F)c3ccccc23)cc1 | 2330 |
| COC[C@H](NC(=O)[C@H](CCC(=O)NC(C)(C)C)NC(=O)CCc1ccccc1)C(=O)NCc1cccc2ccccc12 | 24 |
| COC[C@H](NC(=O)[C@H](CC(=O)NC(C)(C)C)NS(=O)(=O)c1ccc(C)cc1)C(=O)NCc1ccc(F)c2ccccc12 | 246 |
| C[C@H](NC(=O)[C@H](CC(=O)NOC(C)(C)C)NC(=O)CN1CCOCC1)C(=O)NCc1cccc2ccccc12 | 104 |
| COC[C@H](NC(=O)[C@H](CCC(=O)NC(C)(C)C)NS(=O)(=O)c1ccc(C)cc1)C(=O)NCc1ccc(F)c2ccccc12 | 1880 |
| Cc1cc(C(=O)N[C@@H](CCC(=O)NC(C)(C)C)C(=O)N[C@@H](C)C(=O)NCc2ccc(F)c3ccccc23)no1 | 508 |
| Cc1nc(C(=O)N[C@@H](CC(=O)NOC(C)(C)C)C(=O)N[C@@H](C)C(=O)NCc2cccc3ccccc23)cs1 | 77 |
| CC(C)(C)CNC(=O)C[C@H](NC(=O)CCc1ccccc1)C(=O)N[C@@H](Cc1ccc(F)cc1)C(=O)NCc1cccc2ccccc12 | 15 |
